# Patent publication EP1027361B1, “6,11-BRIDGED ERYTHROMYCIN DERIVATIVES” (Abbott Laboratories, priority 1997, dated 1999)
# Tested on: Streptococcus Pheumoniae 5979
# Experiment: in vitro antibacterial activity, agar dilution MIC
# Type: cell-based
# Settings: organism code ZZ, BHI agar, 35-37 °C, 20 to 24 hours
# Protocol: Representative compounds of the present invention were assayed in vitro for antibacterial activity as follows: Twelve petri dishes containing successive aqueous dilutions of the test compound mixed with 10 mL of sterilized Brain Heart Infusion (BHI) agar (Difco 0418-01-5) were prepared. Each plate was inoculated with 1:100 (or 1:10 for slow-growing strains, such as Micrococcus and Streptococcus) dilutions of up to 32 different microorganisms, using a Steers replicator block. The inoculated plates were incubated at 35-37 °C for 20 to 24 hours. In addition, a control plate, using BHI agar containing no test compound, was prepared and incubated at the beginning and end of each test
# An additional plate containing a compound having known susceptibility patterns for the organisms being tested and belonging to the same antibiotic class as the test compound was also prepared and incubated as a further control, as well as to provide test-to-test comparability. Erythromycin A was used for this purpose.
# After incubation, each plate was visually inspected. The minimum inhibitory concentration (MIC) was defined as the lowest concentration of drug yielding no growth, a slight haze, or sparsely isolated colonies on the inoculum spot as compared to the growth control.
smiles,measurement,value
"CC[C@H]1OC(=O)[C@H](C)[C@@H](O[C@H]2C[C@@](C)(OC)[C@@H](O)[C@H](C)O2)[C@H](C)[C@@H](O[C@@H]2O[C@H](C)C[C@H](N(C)C)[C@H]2O)[C@](C)(O)C[C@@H](C)C(=O)[C@H](C)[C@@H](O)[C@]1(C)O [Ery. A, Erythromycin A, reference compound]",minimum inhibitory concentration (MIC),>128
